Patent publication US9850203B2, “Autotaxin inhibitor compounds” (PharmAkea, Inc., priority 2013, dated 2017)

Target: human autotaxin (ATX) (Homo sapiens (Human), UniProt Q13822)
Assay: Human Autotaxin Assay
Type: biochemical
Details: concentrated conditioned media from Hep3B cells; LPC substrate, choline release
Method: ATX activity is assayed in concentrated conditioned media from Hep3B human hepatocellular carcinoma cells by measuring the amount of choline released from the substrate, lysophosphatidylcholine (LPC) as it is cleaved to LPA. Conditioned media is collected from confluent Hep3B cells and concentrated 20-fold using Centriprep-30 filter devices (Millipore). To assay for autotaxin inhibition, 10-20 μL of the concentrated conditioned media is incubated with 2.5 μL of a test compound in DMSO and 72.5-82.5 μL lyso-PLD buffer (100 mM Tris pH 9, 500 mM NaCl, 5 mM MgCl2, 5 mM CaCl2, 0.05% Triton X-100 in the presence or absence of 0.2% fatty-acid-free human serum albumin) for 15 min at 37° C. After the 15 min incubation, 5 uL of 2 mM LPC (14:0; Avanti Polar Lipids Cat#855575C) diluted in lyso-PLD buffer is added for a final concentration of 100 uM and the incubation continues for 1.5-3 hours at 37° C. 100 μL of a color mix containing 4.5 mM 4-aminoantipyrine, 2.7 mM N-ethyl-N-(2-hydroxy-3-sulfopropyl)-m-toluidine, 21 units/ml horseradish peroxidase and 3 units/mL choline oxidase in 50 mM Tris, pH 8, 4.5 mM MgCl2 is added and the incubation continued for 15 minutes at room temperature before reading the absorbance at 555 nm.

IC50: ≤ 500 nM
Structure (SMILES): Cc1c(Sc2cccc(C(=O)O)c2F)c2ccc(Cl)c(F)c2n1CC(=O)N1CCC(O)(C(F)(F)F)C1 (racemic) [Compound 2-57, Sodium 3-((6-chloro-7-fluoro-1-(2-(3-hydroxy-3-(trifluoromethyl)pyrrolidin-1-yl)-2-oxoethyl)-2-methyl-1H-indol-3-yl)thio)-2-fluorobenzoate]
